Results published in ChEMBL document CHEMBL1125742 (J Med Chem, 1991).

The chains behind the UniProt entries cited, without tags or fusion partners. Where a name states a change or a piece, a line headed by the entry shows the natural chain unless it says otherwise.
UniProt P41144: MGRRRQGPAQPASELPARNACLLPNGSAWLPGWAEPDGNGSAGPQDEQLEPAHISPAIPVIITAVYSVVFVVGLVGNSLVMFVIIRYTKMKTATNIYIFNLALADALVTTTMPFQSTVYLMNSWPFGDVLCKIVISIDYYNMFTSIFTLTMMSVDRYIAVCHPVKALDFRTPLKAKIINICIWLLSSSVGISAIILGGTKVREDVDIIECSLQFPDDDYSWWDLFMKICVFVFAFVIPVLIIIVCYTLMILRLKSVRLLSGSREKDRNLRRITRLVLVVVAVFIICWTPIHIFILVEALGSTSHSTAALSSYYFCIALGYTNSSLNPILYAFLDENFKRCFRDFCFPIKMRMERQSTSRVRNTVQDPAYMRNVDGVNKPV
UniProt P97266, whole entry, looked up: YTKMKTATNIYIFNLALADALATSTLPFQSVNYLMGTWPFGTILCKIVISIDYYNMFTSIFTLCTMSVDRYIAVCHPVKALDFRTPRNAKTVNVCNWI

How the values were obtained:
Mus musculus = assay: Antinociceptive activity in mouse tail flick test following s.c. administration.; format: functional
Summary of the method: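 Mouse tail flick test, D'Amour and Smith procedure as modified by Ling et al., with compound given subcutaneously. ED50 in mg/kg with 95% confidence limits, derived by Finney probit analysis.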

[1] = molecular target: Kappa-type opioid receptor (Cavia porcellus, UniProt P41144); format: tissue-based, Brain
Mu-type opioid receptor = Mu-type opioid receptor (Cavia porcellus, UniProt P97266); assay: Displacement of [3H]DAGO from mu opioid receptors in guinea pig brain (minus cerebellum).; format: tissue-based

Structure (SMILES): CN(C(=O)Cc1ccc(Cl)c(Cl)c1)C1CCCCC1N1CCCC1 (stereo not drawn)
- ED50 (Mus musculus): 1.9 mg/kg
- Ki [1]: 0.97 nM
- Ki (Mu-type opioid receptor): 616 nM
